Test results as given in US7591979B2 (priority 2003, dated 2009).
Read-outs that look alike come from different tables or passages of the source.

Tested on: naturally-occurring algae from water samples of the Clinch River
Details: 10 μM DCMU, 0° C.

Compound: CN(C)C(=O)Nc1ccc(Cl)c(Cl)c1
- Percentage (%) decrease in photochemical yield (2 min after exposure): −8.87%
- Percentage (%) decrease in photochemical yield (10 min after exposure): −19.43%
- Percentage (%) decrease in photochemical yield (15 min after exposure): −22.83%
